# scFv variants of Ab-14 (light chain) against a SARS-CoV-2 spike peptide

From the AlphaSeq antibody data of Li et al. 2023 (doi:10.1038/s41467-023-39022-2), copy in the FLAb collection.

The target is the same throughout: PDVDLGDISGINAS, from the HR2 region of SARS-CoV-2 spike.

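The variants were designed computationally from a first round of random CDR variants and then made and measured. Their group label is 14L_GP_Gen (GP: Gaussian process model; Gen: genetic algorithm; a sequence that several methods proposed may carry one label only). The scFvs were displayed on barcoded MATa yeast, the peptide on MATalpha yeast. The frequency of each diploid, read from paired DNA barcodes, reflects how well the two displayed proteins bind. The ratio of observed to expected reads was calibrated, replicate by replicate, on BCL2-family standards whose Kd was known from biolayer interferometry. Each pool was mated in six replicate cultures.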

The variants keep the heavy chain, the linker and the frameworks of Ab-14 (scFv order VH, a 15-residue (Gly4Ser)3 linker, VL).
VH: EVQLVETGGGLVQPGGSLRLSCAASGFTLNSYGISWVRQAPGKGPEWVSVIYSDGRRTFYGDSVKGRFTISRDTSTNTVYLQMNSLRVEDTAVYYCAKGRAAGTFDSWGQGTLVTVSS
VL: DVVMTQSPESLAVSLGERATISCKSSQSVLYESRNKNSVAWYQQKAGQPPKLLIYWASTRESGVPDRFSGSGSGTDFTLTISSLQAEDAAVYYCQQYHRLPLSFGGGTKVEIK

Sequences are complete VL domains. Numbers give log10(Kd / nM), so 0 is 1 nM and 3 is 1 µM. Smaller is tighter. Replicates are averaged; those with no signal do not enter the mean.

{"VL": "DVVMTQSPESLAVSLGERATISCKLSQSQLYESRMKNSVAWYQQKAGQPPKLLIYNASTRCSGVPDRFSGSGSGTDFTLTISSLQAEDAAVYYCQQYHRLPLSFGGGTKVEIK", "log10 Kd, replicates": "0.42 / 0.16 / 0.11 / 0.11 / -0.10 / 0.15", "mean log10 Kd (nM)": "0.14", "control signals": "2/18 (3.46)"}
{"VL": "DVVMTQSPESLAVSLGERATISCKFSQSVPYESRNKNSVAWYQQKAGQPPKLLIYNASTRESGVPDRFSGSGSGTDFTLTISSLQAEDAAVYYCQQYHRLPLSFGGGTKVEIK", "log10 Kd, replicates": "-0.34 / -0.32 / -0.69 / -0.76 / -0.52 / -0.33", "mean log10 Kd (nM)": "-0.49", "control signals": "0/18"}
{"VL": "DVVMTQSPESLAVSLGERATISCKLSQSVLYEQRMKNSVAWYQQKAGQPPKLLIYNASTRESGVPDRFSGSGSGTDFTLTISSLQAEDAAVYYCQQYHRLPLSFGGGTKVEIK", "log10 Kd, replicates": "0.62 / 0.37 / 0.32 / 0.18 / 0.44 / 0.52", "mean log10 Kd (nM)": "0.41", "control signals": "1/18 (2.95)"}
{"VL": "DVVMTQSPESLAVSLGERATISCKLSQSVGYESRNKNNVAWYQQKAGQPPKLLIYDASTRESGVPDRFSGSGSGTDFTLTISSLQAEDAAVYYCQQYHRLPLSFGGGTKVEIK", "log10 Kd, replicates": "-0.11 / -0.32 / -0.50 / -0.61 / -0.51 / -0.29", "mean log10 Kd (nM)": "-0.39", "control signals": "1/18 (3.59)"}
{"VL": "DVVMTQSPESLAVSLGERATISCKLDQSGLYESRNKNSVAWYQQKAGQPPKLLIYNASTRESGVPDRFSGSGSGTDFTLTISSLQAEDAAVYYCQQYHRLPLSFGGGTKVEIK", "log10 Kd, replicates": "-0.17 / -0.22 / -0.38 / -0.26 / -0.40 / -0.02", "mean log10 Kd (nM)": "-0.24", "control signals": "1/18 (2.77)"}
{"VL": "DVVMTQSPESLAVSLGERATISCKFMQSVLYESRNKNSVAWYQQKAGQPPKLLIYNASQRESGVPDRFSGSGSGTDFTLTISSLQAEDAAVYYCQQYHRLPLSFGGGTKVEIK", "log10 Kd, replicates": "0.36 / -0.23 / -0.26 / -0.24 / -0.17 / -0.05", "mean log10 Kd (nM)": "-0.10", "control signals": "1/18 (2.58)"}
{"VL": "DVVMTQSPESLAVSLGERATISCKVSQSQLYESRNKNSVAWYQQKAGQPPKLLIYNASTREVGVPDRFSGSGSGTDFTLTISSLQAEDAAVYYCQQYHRLPLSFGGGTKVEIK", "log10 Kd, replicates": "0.25 / 0.15 / -0.17 / 0.08 / 0.14 / 0.23", "mean log10 Kd (nM)": "0.11", "control signals": "2/18 (2.55)"}
{"VL": "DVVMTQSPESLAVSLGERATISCKVSQSHLYESRNKNAVAWYQQKAGQPPKLLIYHASTRESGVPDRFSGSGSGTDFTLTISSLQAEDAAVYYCQQYHRLPLSFGGGTKVEIK", "log10 Kd, replicates": "-0.02 / -0.14 / -0.18 / -0.18 / -0.35 / -0.16", "mean log10 Kd (nM)": "-0.17", "control signals": "4/18 (2.62)"}
{"VL": "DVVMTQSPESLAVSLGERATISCKVSQSVLYEDRNKNSVAWYQQKAGQPPKLLIYEASQRESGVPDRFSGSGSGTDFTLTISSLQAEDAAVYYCQQYHRLPLSFGGGTKVEIK", "log10 Kd, replicates": "1.20 / 0.87 / 1.04 / 1.09 / 0.31 / 0.75", "mean log10 Kd (nM)": "0.88", "control signals": "1/18 (2.50)"}
{"VL": "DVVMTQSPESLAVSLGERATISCKLSQSFLYESRNKNSVAWYQQKAGQPPKLLIYGASQRESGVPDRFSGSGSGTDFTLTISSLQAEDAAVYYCQQYHRLPLSFGGGTKVEIK", "log10 Kd, replicates": "-0.29 / -0.38 / -0.36 / -0.45 / -0.57 / -0.34", "mean log10 Kd (nM)": "-0.40", "control signals": "1/18 (3.74)"}
{"VL": "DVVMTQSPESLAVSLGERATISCKLQQSQLYESRNKNSVAWYQQKAGQPPKLLIYNASLRESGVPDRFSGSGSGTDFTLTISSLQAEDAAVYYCQQYHRLPLSFGGGTKVEIK", "log10 Kd, replicates": "-0.22 / -0.27 / -0.36 / -0.36 / -0.34 / -0.11", "mean log10 Kd (nM)": "-0.28", "control signals": "0/18"}
{"VL": "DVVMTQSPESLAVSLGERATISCKVSQSVLYESRNKNSVAWYQQKAGQPPKLLIYHASQRESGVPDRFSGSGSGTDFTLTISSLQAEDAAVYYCQQYHRLPLSFGGGTKVEIK", "log10 Kd, replicates": "0.23 / -0.05 / 0.09 / 0.06 / 0.17 / 0.17", "mean log10 Kd (nM)": "0.11", "control signals": "1/18 (2.47)"}
{"VL": "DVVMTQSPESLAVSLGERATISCKLSQSELYESRQKNSVAWYQQKAGQPPKLLIYNASTRESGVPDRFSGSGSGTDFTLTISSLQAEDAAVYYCQQYHRLPLSFGGGTKVEIK", "log10 Kd, replicates": "0.00 / 0.04 / -0.17 / -0.26 / -0.32 / -0.15", "mean log10 Kd (nM)": "-0.14", "control signals": "2/18 (3.56)"}
{"VL": "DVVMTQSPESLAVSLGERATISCKLSQSYLYESRNKNNVAWYQQKAGQPPKLLIYNASTRESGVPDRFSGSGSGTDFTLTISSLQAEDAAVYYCQQYHRLPLSFGGGTKVEIK", "log10 Kd, replicates": "1.01 / 0.53 / 0.52 / 0.55 / 0.84 / 1.13", "mean log10 Kd (nM)": "0.76", "control signals": "0/18"}
{"VL": "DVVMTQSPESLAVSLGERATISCKLSMSVLYESRNKNSVAWYQQKAGQPPKLLIYNASQRESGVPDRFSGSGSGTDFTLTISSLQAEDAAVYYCQQYHRLPLSFGGGTKVEIK", "log10 Kd, replicates": "-0.21 / -0.45 / -0.34 / -0.45 / -0.43 / -0.25", "mean log10 Kd (nM)": "-0.35", "control signals": "2/18 (2.73)"}
{"VL": "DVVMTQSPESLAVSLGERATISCKLSQSYMYESRNKNSVAWYQQKAGQPPKLLIYNASTRESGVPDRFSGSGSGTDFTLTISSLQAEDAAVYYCQQYHRLPLSFGGGTKVEIK", "log10 Kd, replicates": "-0.58 / -0.57 / -0.72 / -0.66 / -0.59 / -0.46", "mean log10 Kd (nM)": "-0.60", "control signals": "1/18 (3.96)"}
{"VL": "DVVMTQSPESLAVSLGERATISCKISQSELYESRNKNSVAWYQQKAGQPPKLLIYEASTRESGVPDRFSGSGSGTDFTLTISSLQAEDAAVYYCQQYHRLPLSFGGGTKVEIK", "log10 Kd, replicates": "-0.10 / -0.32 / -0.18 / -0.36 / -0.15 / -0.14", "mean log10 Kd (nM)": "-0.21", "control signals": "1/18 (2.21)"}
{"VL": "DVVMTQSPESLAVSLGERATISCKIQQSVLYESRNKNSVAWYQQKAGQPPKLLIYNASTRCSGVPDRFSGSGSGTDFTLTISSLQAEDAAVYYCQQYHRLPLSFGGGTKVEIK", "log10 Kd, replicates": "0.07 / 0.08 / -0.07 / -0.30 / -0.22 / -0.14", "mean log10 Kd (nM)": "-0.10", "control signals": "0/18"}
{"VL": "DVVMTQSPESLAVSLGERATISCKLQQSVWYESRNKNSVAWYQQKAGQPPKLLIYNASTRLSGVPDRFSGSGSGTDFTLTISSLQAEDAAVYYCQQYHRLPLSFGGGTKVEIK", "log10 Kd, replicates": "0.14 / 0.02 / -0.12 / -0.08 / -0.16 / 0.23", "mean log10 Kd (nM)": "0.01", "control signals": "0/18"}
{"VL": "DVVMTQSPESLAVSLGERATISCKFSQSVLYESRNKNSVAWYQQKAGQPPKLLIYNASTRESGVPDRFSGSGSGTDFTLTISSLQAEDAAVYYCQDYHRLPLSFGGGTKVEIK", "log10 Kd, replicates": "-0.18 / 0.00 / -0.12 / 0.00 / -0.22 / -0.01", "mean log10 Kd (nM)": "-0.09", "control signals": "1/18 (4.41)"}
{"VL": "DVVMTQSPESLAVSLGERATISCKLSQSVLYESRNKNSVAWYQQKAGQPPKLLIYNASTRLKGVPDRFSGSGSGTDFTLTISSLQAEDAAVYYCQQYHRLPLSFGGGTKVEIK", "log10 Kd, replicates": "0.09 / 0.15 / 0.09 / 0.05 / 0.15 / 0.25", "mean log10 Kd (nM)": "0.13", "control signals": "3/18 (3.67)"}
{"VL": "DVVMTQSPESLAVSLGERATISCKLEQSCLYESRNKNSVAWYQQKAGQPPKLLIYNASTRESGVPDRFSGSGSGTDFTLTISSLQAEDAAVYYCQQYHRLPLSFGGGTKVEIK", "log10 Kd, replicates": "0.41 / 0.37 / 0.24 / 0.14 / 0.25 / 0.16", "mean log10 Kd (nM)": "0.26", "control signals": "4/18 (3.29)"}

The first 2 entries again:

VL,"log10 Kd, replicates",mean log10 Kd (nM),control signals
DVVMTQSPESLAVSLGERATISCKLSQSQLYESRMKNSVAWYQQKAGQPPKLLIYNASTRCSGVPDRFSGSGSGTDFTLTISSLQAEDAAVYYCQQYHRLPLSFGGGTKVEIK,0.42 / 0.16 / 0.11 / 0.11 / -0.10 / 0.15,0.14,2/18 (3.46)
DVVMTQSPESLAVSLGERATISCKFSQSVPYESRNKNSVAWYQQKAGQPPKLLIYNASTRESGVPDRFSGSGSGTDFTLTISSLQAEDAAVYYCQQYHRLPLSFGGGTKVEIK,-0.34 / -0.32 / -0.69 / -0.76 / -0.52 / -0.33,-0.49,0/18

Of ten entries with the parent sequence, four were seen in most replicates (averages 0.34 to 2.37), three in one and three in none, so single entries are noisy. Background: pairings of all light chain designs with three empty control strains gave a value in 4% of cases (median 2.64, 5th percentile 1.59). Values in that range, when seen in few replicates, are hard to tell from nonspecific mating. Also given: how often the same scFv was detected with the empty control strains, with their mean in brackets. In the paper, a design with two or fewer of six values counts as a poor binder. A sequence measured in both rounds can read differently, since the two assays cover different ranges.